For this assay, the target named is hMC-4R (Homo sapiens, UniProt P32245). Nature of the assay: Membrane binding assay, competition with fluorescence labeled NDP-alpha-MSH (fluorescence polarization). As to conditions: read-out: hMC-4R binding assay IC50/nM; HEK293 cell membrane preparations; tested form: HCOOH. On the technique in general: Fluorescence polarisation rises when a labelled molecule tumbles more slowly, as on binding a larger partner.

Amino acid sequences for entries named in this document (tags omitted).
UniProt P32245, whole entry: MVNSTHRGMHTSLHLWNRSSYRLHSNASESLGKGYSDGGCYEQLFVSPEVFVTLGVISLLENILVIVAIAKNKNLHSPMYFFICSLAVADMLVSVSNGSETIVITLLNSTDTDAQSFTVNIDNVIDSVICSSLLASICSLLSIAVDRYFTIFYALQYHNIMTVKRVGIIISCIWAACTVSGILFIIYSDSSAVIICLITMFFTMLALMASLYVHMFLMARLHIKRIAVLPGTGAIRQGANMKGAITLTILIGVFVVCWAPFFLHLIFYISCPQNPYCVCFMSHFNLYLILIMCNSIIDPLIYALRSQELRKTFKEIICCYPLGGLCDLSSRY

`CC(C)CCN(CCC(C)C)C(=O)c1ccc2nc(-c3cnc4c(c3)OCCN4C)c(CCCN3CCCC3)n2c1`: the IC50 was less than 100 nM.

Values taken from US20100324036A1, “SUBSTITUTED IMIDAZOPYRIDINE DERIVATIVES AS MELANOCORTIN-4 RECEPTOR ANTAGONISTS” (SANTHERA PHARMACEUTICALS (SCHWEIZ) AG, priority 2007, published 2010).
